According to patent publication US20060110401A1, “Mixture of peptides from c and ns3 proteins of the hepatitis c virus and applications thereof” (priority 2002, published 2006):

Target: T1, HLA-DP401 (DPB1*0401) (human), P20036
T1 chain 1: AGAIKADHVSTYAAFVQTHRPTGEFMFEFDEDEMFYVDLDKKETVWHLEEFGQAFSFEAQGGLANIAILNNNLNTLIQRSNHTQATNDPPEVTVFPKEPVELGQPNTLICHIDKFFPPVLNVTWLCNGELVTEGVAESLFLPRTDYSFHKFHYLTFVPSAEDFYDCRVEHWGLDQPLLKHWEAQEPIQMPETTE
T1 chain 2: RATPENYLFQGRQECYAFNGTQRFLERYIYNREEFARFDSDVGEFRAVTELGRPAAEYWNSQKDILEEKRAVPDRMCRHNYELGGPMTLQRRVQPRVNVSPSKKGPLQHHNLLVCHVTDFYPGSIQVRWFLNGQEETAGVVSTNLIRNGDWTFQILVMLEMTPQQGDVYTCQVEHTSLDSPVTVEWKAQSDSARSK
Experiment: competition
Conditions: chains peptide; modification not given

QDHLEFWEGVFTGLTHIDAHFLSQTKQSGENL [29N 1552-1583] was tested. Which IC50 did it give?
The IC50 was 0.575 µM.
